ChEMBL document CHEMBL2311405, “Synthesis and biological evaluation of indenoisoquinolines that inhibit both tyrosyl-DNA phosphodiesterase I (Tdp1) and topoisomerase I (Top1)” (J Med Chem, 2013)

By UniProt entry, the sequences of proteins in these tests, tags left out.
UniProt Q9NUW8, whole entry: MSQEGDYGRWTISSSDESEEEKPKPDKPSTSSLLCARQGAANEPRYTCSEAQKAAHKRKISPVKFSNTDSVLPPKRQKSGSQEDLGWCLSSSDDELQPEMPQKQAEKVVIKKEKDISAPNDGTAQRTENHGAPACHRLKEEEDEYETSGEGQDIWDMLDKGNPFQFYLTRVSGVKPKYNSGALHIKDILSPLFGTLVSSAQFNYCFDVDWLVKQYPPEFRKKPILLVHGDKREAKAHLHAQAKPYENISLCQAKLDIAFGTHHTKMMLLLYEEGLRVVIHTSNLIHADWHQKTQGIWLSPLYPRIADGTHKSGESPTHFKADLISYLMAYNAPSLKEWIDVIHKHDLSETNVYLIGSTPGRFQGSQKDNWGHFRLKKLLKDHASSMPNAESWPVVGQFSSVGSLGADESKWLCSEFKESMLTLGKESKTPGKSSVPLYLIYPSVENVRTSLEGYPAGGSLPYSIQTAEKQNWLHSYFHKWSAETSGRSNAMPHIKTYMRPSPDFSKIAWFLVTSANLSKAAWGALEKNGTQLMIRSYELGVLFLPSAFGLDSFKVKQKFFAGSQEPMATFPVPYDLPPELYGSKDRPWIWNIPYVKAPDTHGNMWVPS

What follows are molecules tested on SF-539 (assay: Growth inhibition of human SF539 cells).
Format: functional

Row | Compound | GI50
1 | O=C1c2ccccc2-c2c1c1ccc([N+](=O)[O-])cc1c(=O)n2CCCO | 0.39 µM

The molecules below were run on HOP-62 (assay: Growth inhibition of human HOP62 cells).
Format: functional

Row | Compound | GI50
2 | COc1ccc2c(c1)-c1c(c3ccc([N+](=O)[O-])cc3c(=O)n1CCCN)C2=O | 0.14 µM

The molecules below were run against Tyrosyl-DNA phosphodiesterase 1 (Homo sapiens, UniProt Q9NUW8).

Row | Compound | IC50
3 | CC(=O)Nc1ccc2c3c(n(CCCN=[N+]=[N-])c(=O)c2c1)-c1ccccc1C3=O | > 111 µM
4 | COc1cccc2c1-c1c(c3ccc([N+](=O)[O-])cc3c(=O)n1CCCN)C2=O | 5.8 µM
5 | O=C1c2ccccc2-c2c1c1ccc([N+](=O)[O-])cc1c(=O)n2CCCO | > 111 µM
6 | CC(=O)Nc1ccc2c3c(n(CCCN)c(=O)c2c1)-c1ccccc1C3=O | 18 µM
7 | COc1ccc2c(c1)C(=O)c1c-2n(CCCN)c(=O)c2cc([N+](=O)[O-])ccc12 | 11 µM
8 | COc1ccc2c(c1)C(=O)c1c-2n(CCCN)c(=O)c2cc(I)ccc12 | 5.2 µM
9 | NCCCn1c2c(c3ccc(N)cc3c1=O)C(=O)c1ccccc1-2 | 12 µM
10 | CC(=O)Nc1ccc2c3c(n(CCCN)c(=O)c2c1)-c1ccccc1C3O (configuration not stated) | > 111 µM
11 | CC(=O)Nc1ccc2c3c(n(CCCO)c(=O)c2c1)-c1ccccc1C3=O | > 111 µM

Each molecule was assayed on UACC-62 (assay: Growth inhibition of human UACC62 cells).
Format: functional

Row | Compound | GI50
12 | COc1ccc2c(c1)-c1c(c3ccc([N+](=O)[O-])cc3c(=O)n1CCCN)C2=O | 0.14 µM
